## Ab-14 light chain CDR variants: yeast mating affinities

Values reported by Li et al. 2023, doi:10.1038/s41467-023-39022-2 (FLAb copy).

Binding partner: SARS-CoV-2 spike HR2 peptide, sequence PDVDLGDISGINAS.

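The starting antibody came from a phage panning campaign against this peptide. Designed CDR sequences, proposed from the first random library and measured here. Group labels follow the data file (En: ensemble of fine-tuned language models; GP: Gaussian process model; HC: hill climbing; Gen: genetic algorithm; Gibbs: Gibbs sampling; a sequence that several methods proposed may carry one label only). AlphaSeq pools MATa yeast showing the antibodies with MATalpha yeast showing the peptide. After mating in shaken culture at 30 °C for 16 h, diploids were selected and their barcode pairs sequenced. Scores were corrected for input abundance and mapped to Kd with protein pairs of known affinity run in the same pool. Mating was done six times.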

Each scFv is VH, the linker GGGGSGGGGSGGGGS, VL, as in the parent Ab-14, and differs from it in the CDRs of the light chain only.
VH: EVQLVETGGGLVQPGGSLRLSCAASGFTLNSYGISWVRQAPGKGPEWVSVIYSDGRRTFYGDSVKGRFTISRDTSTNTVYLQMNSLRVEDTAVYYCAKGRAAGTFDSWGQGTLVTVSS
VL: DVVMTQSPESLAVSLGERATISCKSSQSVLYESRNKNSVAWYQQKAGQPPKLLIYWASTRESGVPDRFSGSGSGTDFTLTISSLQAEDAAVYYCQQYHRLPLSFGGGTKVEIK

Variants are written as CDR1, CDR2 and CDR3 of the light chain (limits as in the source). Parent: KSSQSVLYESRNKNSVA, WASTRES, QQYHRLPLS.
This list holds designs with more than six substitutions.
Kd is apparent (estimated from mating counts) and averaged on the log scale over replicates with a signal. Smaller is tighter.
"no signal" marks a missing value. The strain was present, yet no cells mated with the target were sequenced in any replicate, which points to weak or no binding.
A sequence measured in both rounds can read differently, since the two assays cover different ranges.
The authors averaged sequences with at least three values out of six and counted those with two or fewer as poor binders.
Background: pairings of all light chain designs with three empty control strains gave a value in 4% of cases (median 430 nM, 5th percentile 38 nM). Values in that range, when seen in few replicates, are hard to tell from nonspecific mating.

- MISQLFNMGQFAINSVA / QASERCN / QQYDRLPLM [En_Gen] -> 76 nM (5 of 6 replicates)
- SLGLATMLEEYVRNSVA / NNSTREE / QQYDRLPLS [En_Gen] -> 510 nM (1 of 6 replicates)
- KLSMVTGHMSKAKNNVA / EMVTREE / QQYNRLPLS [En_Gen] -> 22 nM (6 of 6 replicates)
- KLMEGDLYESRNKNSVA / NASKRLE / QQYHRLPLS [GP_Gibbs] -> 470 pM (6 of 6 replicates)
- MLLQATMYGERQRNSVA / HASTRED / QQYHRLPLI [En_HC] -> 130 nM (6 of 6 replicates)
- HIQDARGGLSSQWNSVA / STEERSD / QQYHRLPLS [En_Gibbs] -> 1.6 nM (6 of 6 replicates)
- FMEMDFQENSGRGNSIA / SEEVKTR / QHYGRLPLS [En_Gibbs] -> no signal (0 of 6 replicates)
- MLSQVHDYNGYRGNSIA / NVDERNT / QQYKQLPLI [En_Gibbs] -> 2.0 nM (6 of 6 replicates)
- MLLQSTMYGERNRNSVA / HASTRCD / QQYHRLPLI [En_HC] -> 9.6 nM (6 of 6 replicates)
- MMSQVTGLGTRHRNNVA / QTETREP / QQYDRLPLI [En_Gen] -> 9.4 nM (6 of 6 replicates)
- KIGMTLNQLYEKVNNVA / DLVTREA / QQYHRLPLS [En_Gen] -> 1.1 nM (6 of 6 replicates)
- KLNDGFQQYERNNSSVA / DAINSEQ / QQYARLPLL [En_Gibbs] -> 9.1 nM (6 of 6 replicates)
- KISMMSSIESIMHNSVA / QTSTREN / QQYDRLPLS [En_HC] -> 3.1 nM (6 of 6 replicates)
- KSSQSELYESAAKNSVA / SAMQRMS / QQYHRLPLS [GP_Gibbs] -> 2.0 nM (6 of 6 replicates)
- KISMATTFESRNHNSVA / ENSTREQ / QSYHRLPLS [En_HC] -> 1.3 µM (5 of 6 replicates)
- TISMSTYWESRNKNSVA / QTSTREE / QDYDRLPLS [En_HC] -> no signal (0 of 6 replicates)
- KITSMWTFESHNRNNIA / EESTRED / QSYHRLPLS [En_HC] -> 6.9 nM (6 of 6 replicates)
- TISGVMQQMSHSKSNVA / EVSMRLE / QQYVRLPLA [En_Gen] -> 5.8 nM (6 of 6 replicates)
- SMAYFQVFGNQQEKAIA / EVATREQ / QQYFRLPLT [En_Gibbs] -> 19 nM (4 of 6 replicates)
- KLQQSELYMDRNANNVA / NASTRMS / QQYHRLPLS [GP_Gibbs] -> 370 pM (6 of 6 replicates)
- MISQLMQMGQFAINSVA / QASIRNE / QQYDRLPLI [En_Gen] -> 9.7 nM (6 of 6 replicates)
- KQQFSSGMSQRNKNSVA / SASTRCS / QQYHRLPLS [GP_Gibbs] -> 140 nM (1 of 6 replicates)
- SMFEKEYEELQPENNIA / DATERMV / QQYFRLPLL [En_Gibbs] -> 8.7 nM (6 of 6 replicates)
- MLTISGDETHEKAFSIA / NATNKAY / QQYARLPLT [En_Gibbs] -> 14 nM (6 of 6 replicates)
- HISYSMAHLSKNHNSVA / NQQTRES / QQYHRLPLS [En_HC] -> 8.1 nM (6 of 6 replicates)
- TISQMFWGESRNRNSVA / QASTRES / QSYDRLPLS [En_HC] -> 20 nM (6 of 6 replicates)
- MVYSAVMMGGSARNSIA / NAQMRPD / QQYHRLPLI [En_Gen] -> no signal (0 of 6 replicates)
- KITATMRFEQKESNNIA / EVTTRSK / QQYYRLPLS [En_Gen] -> 8.9 nM (6 of 6 replicates)
- KLYQSTAMTSRMKNNVA / DLNERER / QQYFRLPLS [En_HC] -> 1.6 nM (6 of 6 replicates)
- HITYGMQVMGRHSKSIA / QAETREK / QQYDRLPLS [En_Gen] -> 11 nM (6 of 6 replicates)

Excerpt, the final 4 entries:

* MVYSAVMMGGSARNSIA / NAQMRPD / QQYHRLPLI [En_Gen] = no signal (0 of 6 replicates)
* KITATMRFEQKESNNIA / EVTTRSK / QQYYRLPLS [En_Gen] = 8.9 nM (6 of 6 replicates)
* KLYQSTAMTSRMKNNVA / DLNERER / QQYFRLPLS [En_HC] = 1.6 nM (6 of 6 replicates)
* HITYGMQVMGRHSKSIA / QAETREK / QQYDRLPLS [En_Gen] = 11 nM (6 of 6 replicates)